Measured values taken from ChEMBL document CHEMBL1125692 (J Med Chem, 1991).

Amino acid sequences for entries named in this document (tags omitted).
UniProt P61169, whole entry: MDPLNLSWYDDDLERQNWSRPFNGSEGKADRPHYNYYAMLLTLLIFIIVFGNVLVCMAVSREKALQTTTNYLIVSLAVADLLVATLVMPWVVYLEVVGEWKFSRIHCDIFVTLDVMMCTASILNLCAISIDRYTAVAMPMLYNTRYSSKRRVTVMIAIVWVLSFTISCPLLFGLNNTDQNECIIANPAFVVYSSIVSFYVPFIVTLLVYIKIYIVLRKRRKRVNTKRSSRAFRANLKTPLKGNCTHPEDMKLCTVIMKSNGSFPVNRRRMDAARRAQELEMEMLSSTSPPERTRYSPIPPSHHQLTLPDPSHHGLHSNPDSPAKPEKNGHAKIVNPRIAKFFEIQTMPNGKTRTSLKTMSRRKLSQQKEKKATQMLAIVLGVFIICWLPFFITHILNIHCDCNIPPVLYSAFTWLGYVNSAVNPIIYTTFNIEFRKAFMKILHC

Target: D(2) dopamine receptor (Rattus norvegicus, UniProt P61169)
Assay: Displacement of [3H]- spiperone from dopamine receptor D2 of striatal membranes without sodium chloride

Ki: 660 pM
Structure (SMILES): CCN1CCC[C@H]1CNC(=O)c1cc(I)cc(OC)c1OC [EPIDEPRIDE]
